Target: T1, ICE (Homo sapiens, UniProt P29466)
T1 construct: expressed in transfected cells; host or cells: COS-7 cells transfected with pSG5-ICE cDNA, or alternatively lysate of freshly isolated human monocytes
T1 sequence (P29466 120-404): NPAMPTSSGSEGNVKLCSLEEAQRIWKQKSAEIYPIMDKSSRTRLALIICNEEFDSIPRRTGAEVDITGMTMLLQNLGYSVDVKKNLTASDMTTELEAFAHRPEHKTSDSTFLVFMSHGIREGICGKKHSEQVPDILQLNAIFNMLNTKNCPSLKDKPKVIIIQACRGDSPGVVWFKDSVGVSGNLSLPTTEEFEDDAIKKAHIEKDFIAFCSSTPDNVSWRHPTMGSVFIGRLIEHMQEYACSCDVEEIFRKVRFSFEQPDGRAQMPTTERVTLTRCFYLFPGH
Assay: Inhibition of ICE cleavage of pIL-1β, SDS-PAGE and Western blotting
Assay type: biochemical
Conditions: icIL-1raII tested for ability to inhibit ICE activity
Description: cDNA coding for human ICE has been amplified by PCR. The sequence was confirmed and the cDNA was subcloned into pSG5 expression vector. COS cells were transfected with empty vector (mock) or vector containing ICE cDNA and after 48 hours, cells were analysed for the expression of ICE specific mRNA.
A monocyte lysate, prepared as previously described (11), was also able to convert pIL-1β into a mature form (FIG. 2). Therefore, recombinant ICE or freshly isolated human monocytes were used as a source of ICE enzymatic activity for further experiments.
A source of ICE activity was prepared and its ability to cleave pIL-1β was tested by incubating the reaction at 37° C. for 1 hour. The mixture was then run on SDS-PAGE and the presence of pIL1-β or the mature form was evidenced by Western Blotting.

inhibition of ICE activity: inhibits ICE activity
B1: icIL-1raII: new molecular form of intracellular IL-1 receptor antagonist, approximately 25 kDa in SDS-PAGE (protein)
chain: MALADLYEEGGGGGGEGEDNADSKETICRPSGRKSSKMQAFRIWDVNQKTFYLRNNQLVAGYLQGPNVNLEEKIDVVPIEPHALFLGIHGGKMCLSCVKSGDETRLQLEAVNITDLSENRKQDKRFAFIRSDSGPTTSFESAACPGWFLCTAMEADQPVSLTNMPDEGVMVTKFYFQEDE
